The values below are quoted from earlier work in patent publication US20070197424A1, “Glatiramer acetate for use as an immuno-modulatory agent” (priority 2003, published 2007).

One data set concerns metastatic melanoma. The note with it: IL-2 added to chemotherapeutic regimens, metastatic melanoma patients; cited from earlier work.
For another data set, the system named is hepatocellular carcinoma. The note with it: cited from earlier work.
Where [1] appears, read: 18 patients, 1 MIU/d subcutaneous until progression.

Regarding Interleukin-2 [IL-2], the overall response rates result with metastatic melanoma is “up to 60%”. For the same substance, in the data set with hepatocellular carcinoma (setting [1]), the “complete responses (tumor resolution)” value is recorded as 11.1%, the median overall survival is given as 24.5 months, the “median time to progression” value is 15.3 months and the overall response rate is 16.6%. In the data set on hepatocellular carcinoma (setting [1]), the partial response is on record as 5.5%, the “patients progressed during therapy” value was 11.1% and the “patients with stable disease lasting at least 4 months” value is reported as 72.3%. Also, the toxicity result in the data set with hepatocellular carcinoma (human, in vivo) is “only local”.
